System: C4-2 xenograft tumor
Assay: Biodistribution study in mice bearing C4-2 xenografts
Format: in vivo, nude mice
Source text: The animal protocol was approved by the University of Missouri-Kansas City, Institutional Animal Care and Use Committee (IACUC). The C4-2 xenograft tumor model was developed by subcutaneous injection of 1×10^6 C4-2 cells with matrigel into each flank of BALB/c nude male mice aged 5-6 weeks. […] After two hours, the mice were sacrificed, and major organs including the tumors, liver, heart, spleen, lungs, kidneys, and muscle were harvested. Fluorescence intensity of these organs was examined using a Xenogen IVIS imaging system (Xenogen, Hopkinton, Mass.).
It has been reported that peptide achieves its highest uptake in tissues 2 h post-administration (Chen, x., et al., Cancer Res., 2004, 64(21):8009-8014), therefore the mice were sacrificed at 2 h post-administration and major organs harvested including the tumor, liver, kidneys, muscle, heart, lungs, and spleen. […] Uptake of the GTI peptide in other organs, such as the heart, lungs and muscle is negligible.

CC[C@H](C)[C@H](NC(=O)[C@@H](NC(=O)CN)[C@@H](C)O)C(=O)N[C@@H](CCC(N)=O)C(=O)N1CCC[C@H]1C(=O)N[C@@H](Cc1ccc(O)cc1)C(=O)N1CCC[C@H]1C(=O)N[C@@H](Cc1ccccc1)C(=O)N[C@@H](CO)C(=O)N[C@@H](Cc1c[nH]c2ccccc12)C(=O)NCC(=O)N[C@@H](Cc1ccc(O)cc1)C(=O)O [GTI]
uptake in other major organs, such as the liver and spleen: either low or negligible
